From patent US12226454B2, “Pharmaceutical compositions and use thereof for relieving anticancer drug resistance and enhancing sensitivity of anticancer drug” (Rise Biopharmaceuticals Inc., priority 2015, dated 2025)

Test system: IL-8, CXCR1 and CXCR2 mRNA in HCC827
Details: HCC827, gefitinib-treated

Q: Which “CXCR1 and CXCR2 mRNA expression” value does the source give for `COc1cc2ncnc(Nc3ccc(F)c(Cl)c3)c2cc1OCCCN1CCOCC1` [Gefitinib] here?
A: The value was “not induced obviously”.

Q: And the “IL-8 mRNA expression” value?
A: The value was “not induced obviously”.
